Measurements from patent US20240034987A1, “SUPPLEMENTED SERUM-FREE MEDIA FOR CULTURED MEAT PRODUCTION” (Trustees of Tufts College, priority 2020, published 2024).

What was measured:
Type in all cases: cell-based
[1] = system: bovine satellite cells (BSCs); assay: Long-term growth analysis (seven passages over 28 days, cell counts); conditions: for final (28-day) cell yield compared with 0.8 mg/mL: starting population 24,000
Protocol: For generating long-term growth curves, BSCs were thawed and plated (P1) onto 6-well culture plates (triplicate wells) in BSC-GM with 0.25 ug/cm^2 iMatrix laminin-511. After allowing cells to adhere overnight, media was removed, cells were washed 1× with DPBS, and either BSC-GM, B8, Beefy-9 (40 ng/mL FGF-2) or Beefy-9 (5 ng/mL FGF-2) were added to cells. Upon reaching ˜70% confluency, cells were rinsed with DPBS, harvested with TrypLE Express, and counted using an NC-200 automated cell counter (duplicate counts for each well). Cells were then pelleted at 300 g, resuspended in BSC-GM or B8 media, re-counted, and seeded onto new 6-well plates at 2,500 cells/cm^2 with 0.25 ug/cm^2 iMatrix laminin-511 (cells in BSC-GM) or 1.5 ug/cm^2 recombinant vitronectin (cells in B8). After allowing cells to adhere overnight, media was replaced with appropriate media (BSC-GM, B8, Beefy-9 (40 ng/mL FGF-2) or Beefy-9 (5 ng/mL FGF-2). This process was repeated over 28 days and seven passages. Throughout culture, cells were fed every two days. When seeding cells for passages 2, 4, 6, and 7, additional wells were seeded for staining for myosin heavy chain (P2, P4 and P6) or lipid accumulation (P7).
Statistical analysis was performed with GraphPad Prism 9.0 software (San Diego, CA, USA). Short-term cell growth analyses were performed via one-way or two-way ANOVA, as appropriate, with multiple comparisons performed with the Tukey's HSD post-hoc test. Regression analysis (FIG. 3A) was performed via nonlinear regression (least squares; exponential (Malthusian) growth) and is shown alongside 95% confidence interval. Doubling time (FIG. 5B) was determined through nonlinear regression (least squares; exponential (Malthusian) growth) for each biological replicate (well) of each passage, using technical replicates (duplicate counts) in generating nonlinear regressions. P values <0.05 were treated as significant. Unless otherwise stated, errors are given as ±standard deviation.

[2] = system: bovine satellite cells (BSCs); assay: Short-term growth analysis (3 and 4 days, dsDNA quantitation, brightfield imaging)
Protocol: Homemade B8 medium was prepared using store-bought components and a previously described formulation and method of preparation. See, Kuo, H. H. et al. Negligible-Cost and Weekend-Free Chemically Defined Human iPSC Culture. Stem Cell Reports 14, 256-270. Table 1 includes the formulation. Additionally, HiDef-B8 medium aliquots were generously provided by Defined Bioscience (Defined Bioscience #LSS-201, San Diego, CA, USA) and added DMEM/F12 with 1% antibiotic/antimycotic. Short term BSC growth (3 and 4 days) was analyzed for mixtures of serum-containing and serum-free media, as well as for pure B8 media with reduced growth factor concentrations and/or with the addition of various media supplements (Table 2). Briefly, BSCs were thawed (passage number <2) and plated in BSC-GM on 96-well tissue-culture plastic plates for each timepoint at a density of 2,500 cells/cm^2 with 0.25 ug/cm^2 iMatrix recombinant laminin-511. After 24 hours, BSC-GM was removed, cells were washed 1× with DPBS, and new media (e.g., B8+/−supplementation) was added. A list of supplements and concentrations can be found in Table 2. Media was changed on day 3, and on days 3 and 4 cells were imaged, media was aspirated from appropriate plates, and plates were frozen at −80° C. Once all timepoints were frozen, cell number was analyzed using a FluoReporter dsDNA quantitation kit (ThermoFisher #F2962) according to the recommended protocol and with fluorescence readings performed on a Synergy H1 microplate reader (BioTek Instruments, Winooski, VT, USA) using excitation and emission filters centered at 360 and 490 nm, respectively. Cell number at 3 and 4 days was analyzed relative to pure B8 or HiDef media.

[3] = system: bovine satellite cells (BSCs); assay: Serum-free differentiation, myosin heavy chain staining / fusion index; conditions: 6.4 mg/mL rAlbumin (especially with reduced FGF)
Protocol: Throughout long-term culture, a population of cells at passages 2, 4, and 6 were cultured to confluency in serum-containing or serum-free conditions, and media was changed to a previously described serum-free differentiation media consisting of Neurobasal (Invitrogen #21103049, Carlsbad, CA, USA) and L15 (Invitrogen #11415064) basal media (1:1) supplemented with 1% antibiotic/antimycotic, 10 ng/mL insulin-like growth factor 1 (IGF-1; Shenandoah Biotechnology #100-34AF-100UG, Warminster, PA, USA) and 100 ng/mL epidermal growth factor (EGF; Shenandoah Biotechnology #100-26-500UG). Cells were differentiated for 4-6 days (changing media every two days).
To verify myogenicity of cells differentiated in serum-free media, cells from above were fixed, stained, and imaged as previously described, using primary antibodies for MHC (Developmental studies hybridoma bank #MF-20), phalloidin 594 (1:100), appropriate secondary antibodies (ThermoFisher #A-11001, 1:1000), and Fluoroshield mounting medium with DAPI.

Substance: rAlbumin: recombinant human albumin, media supplement (Sigma A9731-1G)
- growth compared with 0.8 mg/mL rAlbumin at day 28 ([1]; 1.6 mg/mL rAlbumin): No improvement
- growth compared with 0.8 mg/mL rAlbumin at earlier passages ([1]; 1.6 mg/mL rAlbumin): consistent improvement
- final (28-day) cell yield compared with 0.8 mg/mL ([1]; 3.2 mg/mL rAlbumin): significant increases in cell yield
- final (28-day) cell yield compared with 0.8 mg/mL ([1]; 6.4 mg/mL rAlbumin): significant increases in cell yield
- role in growth improvement by combinations of supplements ([2]; rAlbumin 800 μg/mL in B8 with combinations of factors, 4 days): driving factor in all significant improvements
- improvement in 4-day growth compared to Beefy-9's 800 ug/mL ([2]; rAlbumin 11.2 mg/mL (highest concentration)): 8.5 fold
- short-term growth with increasing rAlbumin concentration ([2]; rAlbumin over 800 ug/mL up to 11.2 mg/mL, 3 & 4 days): drastic increase in growth
- improvement in growth compared with plain B8 ([2]; supplement added to B8, growth over four days): ~4 fold
- BSC proliferation compared to B8 media alone ([2]; supplement in B8, range of concentrations, growth over four days): significantly improved
- degree of MF20 staining, myotube density and diameter [3]: reduced
